## AlphaSeq binding of Ab-14 heavy chain variants to a spike HR2 peptide

From the AlphaSeq antibody data of Li et al. 2023 (doi:10.1038/s41467-023-39022-2), copy in the FLAb collection.

Target: peptide PDVDLGDISGINAS, taken from heptad repeat 2 (HR2) of SARS-CoV-2 spike.

Parent: Ab-14, a human scFv built as VH, the linker GGGGSGGGGSGGGGS, VL. Only the CDRs of the heavy chain vary.
VH: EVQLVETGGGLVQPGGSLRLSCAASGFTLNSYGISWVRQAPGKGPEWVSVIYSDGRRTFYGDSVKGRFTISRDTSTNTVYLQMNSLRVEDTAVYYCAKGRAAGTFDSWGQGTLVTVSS
VL: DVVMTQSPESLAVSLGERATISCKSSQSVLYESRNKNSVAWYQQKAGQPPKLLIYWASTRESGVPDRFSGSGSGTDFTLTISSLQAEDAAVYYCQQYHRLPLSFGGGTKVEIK

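Phage display of a naive human antibody library on the peptide gave the parent. These sequences belong to a second round, designed from the earlier measurements on random variants of the parent. Several design methods are mixed in this list. The assay is AlphaSeq: two haploid yeast populations carry antibody and antigen on their surface. Pairs that bind mate more often; barcode pairs of the diploids are counted by sequencing. The ratio of observed to expected reads was calibrated, replicate by replicate, on BCL2-family standards whose Kd was known from biolayer interferometry. The assay was run in six technical replicates.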

Each variant is given by its three heavy chain CDRs, as the data file delimits them; those of the parent are GFTLNSYGIS, VIYSDGRRTFYGDSVK, GRAAGTFDS. Affinities are written as log10 Kd with Kd in nM; a lower number is a better binder. The mean shown is taken over the replicates in which the pair was detected. A pair that was not seen in any replicate is written "not detected"; this usually means weak binding, but a binder can also be missed.

| CDR-H1 | CDR-H2 | CDR-H3 | mean, log10 nM | replicates with signal | control signals |
|---|---|---|---|---|---|
| GFTLNLYGIS | VIYADGQRTFYGDSVK | GRAALTFDS | not detected | 0 of 6 | 0 of 18 |
| GFTLNSYGIS | VIYSDGRRTFYNDSVK | GRAPGTFDS | not detected | 0 of 6 | 0 of 18 |
| GFDLNEYGIS | VIYADGKRTVYADSVK | GNVAGTFDM | -0.81 | 6 of 6 | 0 of 18 |
| GFTLNEYGIS | VIYSDGRRTFYQDSVK | GRAAGHFDS | not detected | 0 of 6 | 0 of 18 |
| GFNLDEYGVS | VIYADGNRTQYTEDVK | GTNGGAVDL | not detected | 0 of 6 | 1 of 18 |
| GFNLDEIGIS | VIYADGRRTVYTDKVK | GANGVDIDV | not detected | 0 of 6 | 0 of 18 |
| GFDLDEYGIS | VIYADGKRTAYADSVK | GNNAGTFDV | -0.39 | 6 of 6 | 0 of 18 |
| GFTLNSYGIS | VIYSDGRRTFYQDSVK | GQVAGTFDS | 1.01 | 6 of 6 | 1 of 18 |
| GFDLDEYGIS | VIYADGMRTAYSDNVK | GEVAGTFDT | -0.19 | 6 of 6 | 0 of 18 |
| GFTLNEYGIS | VIYSDGRRTFYGDSVK | GRAALTFWL | not detected | 0 of 6 | 0 of 18 |
| GFTLESYGIS | VIYSDGRRTFYGDSVK | GRAAGQFDS | not detected | 0 of 6 | 0 of 18 |
| GFELNEYGIS | VIYSDGRRTFYCDSVK | GRTAGTFDS | 1.54 | 6 of 6 | 1 of 18 |
| GFDLNEYGIS | VIYADGKRTAYIDSVK | GNVAGTFDM | -0.05 | 6 of 6 | 0 of 18 |
| GFTLNSYGIS | VIYSDGRRVFYGDSVK | GPAAGTFDS | 2.01 | 1 of 6 | 0 of 18 |
| GFDLNSYGIS | VIYSDGRRTFYIDSVK | GRTAGTFDS | 0.61 | 6 of 6 | 1 of 18 |
| GFTLQSYGIS | VIYSDGRRTAYGDSVK | GFAAGTFDS | 1.44 | 4 of 6 | 0 of 18 |
| GFDLNEYGIS | VIYADGVRTAYADNVK | GQVAGTFDI | -0.45 | 6 of 6 | 0 of 18 |
| KFDLEAYGIS | VIYADGVRTGYVDKVK | GDTGGMFDM | not detected | 0 of 6 | 0 of 18 |
| GFDLNEYGIS | VIYADGRRTAYSDSVK | GHAAGTFDL | -0.03 | 6 of 6 | 0 of 18 |
| GFTFNSDGIS | VIYADGRRTFYGDSVK | GRAAGTNKS | 2.43 | 1 of 6 | 0 of 18 |
| GFTLNSYGIS | VIYSDGRRTFYIDSVK | GTAAGTFDS | 0.73 | 6 of 6 | 0 of 18 |
| GFSLNSYGIS | VIYSDGRRTFYVDSVK | GSAAGTFDS | 0.49 | 5 of 6 | 0 of 18 |
| GFDLNEYGIS | VIYADGRRTAYADNVK | GENAGTFDV | -2.05 | 6 of 6 | 0 of 18 |
| GFNLNSYGIS | VIYSDGRRTFYADDVK | GREAGTFDS | -0.45 | 6 of 6 | 0 of 18 |
| GFDLDEYGIS | VIYADGRRTAYADNVK | GNVAGTFDV | -0.37 | 6 of 6 | 0 of 18 |
| GFDLNEYGIS | VIYADGVRTAYVDSVK | GENAGTFDI | -0.27 | 6 of 6 | 1 of 18 |
| GFDLNEYGIS | VIYADGQRTFYADSVK | GEIAGTFDF | -0.39 | 6 of 6 | 0 of 18 |
| GFDINEYGIS | VIYADGRRVYYADDVK | GKNLELFSF | not detected | 0 of 6 | 0 of 18 |
| GFTLDSYGIS | VIYSDGRRTFYGDSHK | GRPIGTALS | not detected | 0 of 6 | 0 of 18 |
| GFTLLSYGIS | VIYSDGHRTFYTDSVK | GRAADTFDS | not detected | 0 of 6 | 0 of 18 |
| GFSLNSYGIS | VIYADGRRTFYGDSVK | RRAAGTFDS | not detected | 0 of 6 | 0 of 18 |
| GFDLDEYGIS | VIYADGKRTFYADDVK | GNVAGTFDV | -0.47 | 6 of 6 | 0 of 18 |
| GFTLNNYGIS | VIYSDGRRTFYGNSVK | GTAAGTFDL | 1.30 | 6 of 6 | 1 of 18 |
| GFELNSYGIS | VIYSDGRRTFYGDSVK | GVTAGTFDV | 1.13 | 6 of 6 | 1 of 18 |
| GFELNSYGIH | VIYSDGRRTMYGDSVK | GRTAGTFDS | not detected | 0 of 6 | 0 of 18 |
| GFTLNSYGIS | VIYSDGRRTAYGDSVA | GREHGTFDS | not detected | 0 of 6 | 0 of 18 |
| GFSLENYGIS | VIYSDGRRTFYGDSVK | GRAAGTFDS | 0.49 | 6 of 6 | 0 of 18 |
| GFDLNSYGIS | VIYSDGRRTFYGDSVK | GKAAGTFDK | 0.55 | 5 of 6 | 0 of 18 |
| GFTLNSYGIS | VIYSDGRRTFYGDSVK | GQAAGTFDL | 1.34 | 1 of 6 | 0 of 18 |
| GFNLNSYGIS | VIYSDGRRTFYADHVK | GRTAGTFDS | 1.94 | 2 of 6 | 1 of 18 |
| GFELNSYGIS | VIYSDGRRTFYIDDVK | GNAAGTFDS | 0.37 | 6 of 6 | 1 of 18 |
| GFDLNEYGIS | VIYADGMRKAYADSVK | GETAGTFDQ | -0.56 | 6 of 6 | 0 of 18 |
| GFDLNEYGIS | VIYADGKRTFYADSVK | GNQAGTFIS | 0.34 | 6 of 6 | 1 of 18 |
| GFDLNEYGIS | VIYADGRRQAYADSVK | GENAGTFDV | not detected | 0 of 6 | 0 of 18 |
| GFTLNSYGIS | VIYSDGRRTFYGDSVK | ARAATWFDS | not detected | 0 of 6 | 0 of 18 |
| GFDLDEYGIS | VIYADGRRTFYADSVK | GEIAGTFDV | -0.67 | 6 of 6 | 0 of 18 |
| GFDLNEYGIS | VIYADGMRTFYTDSVK | GNEAGTFDS | -0.68 | 6 of 6 | 1 of 18 |
| GFDLNEYGIS | VIYADGRRTFYADSVK | GESAGTFDQ | 0.40 | 5 of 6 | 0 of 18 |
| KFSLNSYGIS | VIYSDGRRTFYSDSVK | GKNAGTFDS | not detected | 0 of 6 | 0 of 18 |
| GFELNMYGIS | VIYSDGRRTFYIDSVK | GREAGTFDS | 0.78 | 4 of 6 | 0 of 18 |
| GFSLNDYGIS | VIYSDGRRTFYKDSVK | GRTAGTFDS | 0.45 | 5 of 6 | 1 of 18 |
| GFNLDEYGIS | VIYADGMRNAYRDKVK | GAHSFDLKT | not detected | 0 of 6 | 0 of 18 |
| GFTLNSYGIS | VIYSDGKRTFYLDSVK | GRAAGTFDS | 2.16 | 3 of 6 | 0 of 18 |
| GFTLDSYGIS | VIYSDGERTFYGDSVK | GPAAGTFDS | not detected | 0 of 6 | 1 of 18 |
| GFHLNSYGIS | VIYSDGCRTFYGDSVK | GRLAGTFDS | not detected | 0 of 6 | 0 of 18 |
| GFDLGEYGIS | VIYADGRRKAYSDAVK | GIHVYGKTV | not detected | 0 of 6 | 0 of 18 |
| GFSLNSYGIS | VIYADGRRTFYGDSVK | GREAGTFDS | -0.46 | 6 of 6 | 1 of 18 |
| GFTLDSYGIS | VIYSDGRRTFYGDWVK | GRAAGTALS | not detected | 0 of 6 | 0 of 18 |
| GFDLNEYGIS | VIYADGRRTAYIDSVK | GNEAGTFDS | 0.12 | 6 of 6 | 0 of 18 |
| GESLDEYGIS | VIYADGMRTAYTDDVK | GLVAGTLVD | 1.54 | 6 of 6 | 0 of 18 |
| GFDLNEYGIS | VIYADGKRTFYQDSVK | GEIAGTFDQ | -0.13 | 6 of 6 | 0 of 18 |
| GFKLEEYGIS | VIYADGKRVAYQDKVK | GKHAGMFLV | not detected | 0 of 6 | 0 of 18 |
| GFDLNSYGIS | VIYSDGRRTFYGDQVK | GRTAGTFDV | 0.47 | 6 of 6 | 0 of 18 |
| GFDLQEYGIS | VIYADGERKAYADKVK | GTHGGTRDI | not detected | 0 of 6 | 0 of 18 |
| GFELNSYGIS | VIYSDGRRTFYIDSVK | GNTAGTFDS | 1.72 | 6 of 6 | 0 of 18 |
| GFALNSYGIS | VIYSDGRRTFYDDSVK | GKLAGTFDS | 1.61 | 6 of 6 | 0 of 18 |

The first 6 variants above that were never detected:

| CDR-H1 | CDR-H2 | CDR-H3 | mean, log10 nM | replicates with signal | control signals |
|---|---|---|---|---|---|
| GFTLNLYGIS | VIYADGQRTFYGDSVK | GRAALTFDS | not detected | 0 of 6 | 0 of 18 |
| GFTLNSYGIS | VIYSDGRRTFYNDSVK | GRAPGTFDS | not detected | 0 of 6 | 0 of 18 |
| GFTLNEYGIS | VIYSDGRRTFYQDSVK | GRAAGHFDS | not detected | 0 of 6 | 0 of 18 |
| GFNLDEYGVS | VIYADGNRTQYTEDVK | GTNGGAVDL | not detected | 0 of 6 | 1 of 18 |
| GFNLDEIGIS | VIYADGRRTVYTDKVK | GANGVDIDV | not detected | 0 of 6 | 0 of 18 |
| GFTLNEYGIS | VIYSDGRRTFYGDSVK | GRAALTFWL | not detected | 0 of 6 | 0 of 18 |

The range of this assay differs from that of the first round, and the authors advise against merging the two. The parent sequence was in this pool as ten entries: three were never detected, three once, and four in most replicates, with averages from 0.34 to 2.37. Three control strains display no target. For all heavy chain designs, 1% of the pairings with them gave a signal, with a median of 2.08 and one signal in twenty below 0.84, so weak values seen in few replicates may be background. Also given: how often the same scFv was detected with the empty control strains. The authors averaged sequences with at least three values out of six and counted those with two or fewer as poor binders.